# AlphaSeq binding of Ab-91 heavy chain variants to a spike HR2 peptide

Source: Engelhart et al. 2022 (doi:10.1038/s41597-022-01779-4), MIT Lincoln Laboratory and A-Alpha Bio; data file from the FLAb repository.

The target is the same throughout: PDVDLGDISGINAS, from the HR2 region of SARS-CoV-2 spike.

Parent: Ab-91, a human scFv built as VL, the linker GGGGSGGGGSGGGGS, VH. Only the CDRs of the heavy chain vary.
VL: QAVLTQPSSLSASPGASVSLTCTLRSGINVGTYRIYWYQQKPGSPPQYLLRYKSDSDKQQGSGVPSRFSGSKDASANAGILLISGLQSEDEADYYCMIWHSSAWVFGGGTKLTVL
VH: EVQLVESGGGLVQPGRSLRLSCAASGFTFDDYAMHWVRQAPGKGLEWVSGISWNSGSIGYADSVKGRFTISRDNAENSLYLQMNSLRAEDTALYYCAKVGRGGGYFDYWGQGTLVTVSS

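Phage display of a naive human antibody library on the peptide gave the parent. AAYL51 was designed without a model: most single CDR substitutions and a random sample of double and triple ones. AlphaSeq pools MATa yeast showing the antibodies with MATalpha yeast showing the peptide. Pairs that bind mate more often; barcode pairs of the diploids are counted by sequencing. The ratio of observed to expected reads was calibrated, replicate by replicate, on BCL2-family standards whose Kd was known from biolayer interferometry. Mating was done three times.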

Each variant is given by its three heavy chain CDRs, as the data file delimits them; those of the parent are GFTFDDYAMH, GISWNSGSIGYADSVK, VGRGGGYFDY.
Affinities are written as log10 Kd with Kd in nM; a lower number is a better binder.
"n.d." marks a missing value. The strain was present, yet no cells mated with the target were sequenced in that replicate, which points to weak or no binding.
As a blank, each scFv also met three strains without target: over library AAYL51, 21% of these pairings were detected, typically at 4.54 and seldom below 3.26. The control count says in how many pairings with the empty strains this scFv gave a signal, with their mean in brackets.

{"CDR-H1": "GFTFDDYAMH", "CDR-H2": "GISWWSGSIGYADSVK", "CDR-H3": "VGSGGGFFDY", "log10 Kd, replicates": "5.29 n.d. n.d.", "control signals": "1/9 (4.57)"}
{"CDR-H1": "GFTGDDYAMH", "CDR-H2": "GISWHSGSHGYADSVK", "CDR-H3": "VGRGGGYFDY", "log10 Kd, replicates": "4.15 5.12 n.d.", "control signals": "3/9 (4.80)"}
{"CDR-H1": "GFTFDDYAMH", "CDR-H2": "GGSWNSGRIGYADSVK", "CDR-H3": "VGRGGPYFDY", "log10 Kd, replicates": "3.53 n.d. n.d.", "control signals": "0/9"}
{"CDR-H1": "GFTFDDYAMH", "CDR-H2": "GISWNSGSIGYADSVQ", "CDR-H3": "NGRGHGYFDY", "log10 Kd, replicates": "n.d. n.d. n.d.", "control signals": "2/9 (3.23)"}
{"CDR-H1": "MFTFDDYAMH", "CDR-H2": "GISWNSGSQGYADSVK", "CDR-H3": "KGRGGGYFDY", "log10 Kd, replicates": "n.d. n.d. n.d.", "control signals": "0/9"}
{"CDR-H1": "GFTFDDYAMH", "CDR-H2": "GRSWMSGSIGYADSVK", "CDR-H3": "VGRGGGYFDY", "log10 Kd, replicates": "4.91 5.70 n.d.", "control signals": "4/9 (5.01)"}
{"CDR-H1": "GFTQDDYAMH", "CDR-H2": "GISWNSGSIMYADSVK", "CDR-H3": "VGRGLGYFDY", "log10 Kd, replicates": "4.13 4.89 n.d.", "control signals": "3/9 (4.20)"}
{"CDR-H1": "GFTSDDYAMH", "CDR-H2": "GTSWNSGSIGYADSVK", "CDR-H3": "VGRIGGYFDY", "log10 Kd, replicates": "4.23 n.d. n.d.", "control signals": "4/9 (4.49)"}
{"CDR-H1": "GFTFDDYAMH", "CDR-H2": "GIIWNSGSIGRADSVK", "CDR-H3": "VGRGGDYFDY", "log10 Kd, replicates": "4.91 n.d. n.d.", "control signals": "0/9"}
{"CDR-H1": "KFTFDDYAMH", "CDR-H2": "GISWNSLSIGYADSVK", "CDR-H3": "VGRGGGYFTY", "log10 Kd, replicates": "n.d. n.d. n.d.", "control signals": "0/9"}
{"CDR-H1": "GFYFDDYAMH", "CDR-H2": "GGSWNSGSIGYADSVK", "CDR-H3": "VGRGGAYFDY", "log10 Kd, replicates": "n.d. n.d. 4.44", "control signals": "3/9 (4.48)"}
{"CDR-H1": "GFTVDDYAMH", "CDR-H2": "GISWNSGSIGYADSVK", "CDR-H3": "VGRGGGYPFY", "log10 Kd, replicates": "3.56 n.d. n.d.", "control signals": "2/9 (4.78)"}
{"CDR-H1": "GFTFDDYAMH", "CDR-H2": "GISWNQGSIGYADSDK", "CDR-H3": "GGRGGGYFDY", "log10 Kd, replicates": "n.d. n.d. n.d.", "control signals": "0/9"}
{"CDR-H1": "GFTFDDYAEH", "CDR-H2": "GISWNSGPIGYADSVK", "CDR-H3": "VGRGRGYFDY", "log10 Kd, replicates": "n.d. n.d. n.d.", "control signals": "1/9 (2.77)"}
{"CDR-H1": "GFTFDDYAMR", "CDR-H2": "GISWNSGSIGYADSVI", "CDR-H3": "VGRPGGYFDY", "log10 Kd, replicates": "n.d. 4.35 n.d.", "control signals": "1/9 (4.28)"}
{"CDR-H1": "GFTFDDYAMH", "CDR-H2": "GISWSSQSIGYADNVK", "CDR-H3": "VGRGGGYFDY", "log10 Kd, replicates": "1.16 1.21 0.57", "control signals": "3/9 (4.14)"}
{"CDR-H1": "GFTFDDYAMH", "CDR-H2": "GISWNLGSIGYADWVK", "CDR-H3": "VGRGGGYTDY", "log10 Kd, replicates": "4.91 n.d. n.d.", "control signals": "2/9 (5.62)"}
{"CDR-H1": "GFTFDDYAMH", "CDR-H2": "GISWNSTSIGYWDSVK", "CDR-H3": "WGRGGGYFDY", "log10 Kd, replicates": "n.d. n.d. n.d.", "control signals": "1/9 (5.86)"}
{"CDR-H1": "GFTFKDYAMH", "CDR-H2": "GISWNSGSIGYADSVK", "CDR-H3": "VGRGGPEFDY", "log10 Kd, replicates": "n.d. n.d. n.d.", "control signals": "0/9"}
{"CDR-H1": "GFTFDDYAVH", "CDR-H2": "GINWNSGSIHYADSVK", "CDR-H3": "VGRGGGYFDY", "log10 Kd, replicates": "n.d. n.d. n.d.", "control signals": "0/9"}
{"CDR-H1": "VFTFDDYAMH", "CDR-H2": "GPTWNSGSIGYADSVK", "CDR-H3": "VGRGGGYFDY", "log10 Kd, replicates": "n.d. n.d. n.d.", "control signals": "3/9 (4.45)"}
{"CDR-H1": "KRTFDAYAMH", "CDR-H2": "GISWNSGSIGYADSVK", "CDR-H3": "VGRGGGYFDY", "log10 Kd, replicates": "4.01 n.d. 4.63", "control signals": "1/9 (5.80)"}
{"CDR-H1": "GFTFDQYAMH", "CDR-H2": "GISWNSGSIHYADSVK", "CDR-H3": "VGRGGGYFKY", "log10 Kd, replicates": "1.87 2.20 1.62", "control signals": "2/9 (5.05)"}
{"CDR-H1": "GFTLDDMAMH", "CDR-H2": "GKSWNSGSIGYADSVK", "CDR-H3": "VGRGGGYFDY", "log10 Kd, replicates": "n.d. n.d. n.d.", "control signals": "0/9"}
{"CDR-H1": "GFKFDDYAIH", "CDR-H2": "GISCNSGSIGYADSVK", "CDR-H3": "VGRGGGYFDY", "log10 Kd, replicates": "1.59 2.48 3.65", "control signals": "1/9 (3.94)"}
{"CDR-H1": "GFTFDDYAMH", "CDR-H2": "GISWNSGDIGYADSVR", "CDR-H3": "VGGGGGYFDY", "log10 Kd, replicates": "1.79 1.59 3.25", "control signals": "1/9 (2.21)"}
{"CDR-H1": "GFTFSDYAMH", "CDR-H2": "GISWCSGSIGYADSVK", "CDR-H3": "VGRSGGYFDY", "log10 Kd, replicates": "6.11 4.39 4.58", "control signals": "6/9 (4.65)"}
{"CDR-H1": "GFTFDDYAMH", "CDR-H2": "GISWNSVSIGYADSKK", "CDR-H3": "CGRGGGYFDY", "log10 Kd, replicates": "n.d. n.d. n.d.", "control signals": "2/9 (3.70)"}
{"CDR-H1": "GFQFDYYAMH", "CDR-H2": "GISWNSGSIGYADSVK", "CDR-H3": "VGRGRGYFDY", "log10 Kd, replicates": "4.93 5.04 n.d.", "control signals": "1/9 (4.73)"}
{"CDR-H1": "GCTFDDYAMH", "CDR-H2": "GISWNSGSLGYADSVK", "CDR-H3": "VGRGGGYFDY", "log10 Kd, replicates": "5.73 n.d. n.d.", "control signals": "2/9 (4.55)"}
{"CDR-H1": "GDTFDDYAMH", "CDR-H2": "GISWNSGSIGYADSVK", "CDR-H3": "EGRGGGYFDY", "log10 Kd, replicates": "n.d. n.d. 3.44", "control signals": "1/9 (4.34)"}
{"CDR-H1": "GFTFDDYAMH", "CDR-H2": "HISWNSNSIGYADSVK", "CDR-H3": "VGRNGGYFDY", "log10 Kd, replicates": "n.d. n.d. n.d.", "control signals": "0/9"}